# Experimental data as given in patent US20240398831A1, “COMPOSITIONS COMPRISING SMALL MOLECULE REGULATORS OF TUMOR IMMUNITY AND METHODS OF USING SAME” (Duke University, priority 2021, published 2024).
# How the values were obtained:
# [1] = test system: CD4+ and CD8+ T cells; experiment: T cell proliferation assay and staining, direct treatment of T cells in vitro; assay type: cell-based, mouse; details: E2 (1 nM), 3 days
# Protocol: T cells were isolated from naive WT C57BLJ6J mice and sub-optimally activated with CD3/D28 and IL2 for 3 days in the presence or absence of E2 (1 nM) and E2 (1 nM)+fulvestrant (100 nM). FIG. 17C and FIG. 17H show the percentage of CD44^+CD69^+ activated CD8^+ T cells (FIG. 17C) and CD4^+ T cells (FIG. 17H) from experiments described above. FIG. 17D and FIG. 17I show the percentage of GZMB^+ activated CD8^+ T cells (FIG. 17D) and CD4^+ T cells (FIG. 17I) from experiments described above. FIG. 17E and FIG. 17J show the percentage of IFNγ^+ activated CD8^+ T cells (FIG. 17E) and CD4^+ T cells (FIG. 17J) from experiments described above. Data are expressed as individual data points and represented as mean±S.E.M. Significance was calculated by one way ANOVA.
# (§1) T cell proliferation assay and staining. CD3+ T cells were isolated from the spleens of C57BL/6J or P-mel mice with magnetic bead-based T cell isolation kit (Cat #19851, StemCell Technologies). […] Stained T cells were then counted and plated in 96-well plates coated with anti-CD3 antibody (0.5 μg/mL, Cat #19851, ThermoFisher Scientific) anti-CD28 antibody (1 μg/mL, Cat #16-0281-86, Thermo Fisher Scientific) at desired density (250,000 T cells/50,000 CD11b or BMDM) in the presence of IL2 (50 ng/mL) (Cat #212-12, PeproTech). […]
# [2] = test system: iBP tumors; experiment: iBP autochthonous melanoma mouse model (tumor growth, flow cytometry); assay type: in vivo; details: E2 vs placebo
# Excerpt: Mice. C57BL/BJ, LysMCre (B6.129P2-Lyz2^tm1(cre)lfo/J) Pmel (B6.Cg-Thy1^a/Cy Tg(TcraTcrb)8Rest/J) mice were from Jackson Laboratories (Bar Harbor, ME). Age matched mice were used for all the studies. LysMCre mice were bred to Esr1^f/f mice to generate Esr1^f/f; LysMCre and littermate control LysMCre and Esr1^f/f mice. iBP (Braf^V600E/WT, Pten^f/fmTyrCreERT2) mice were generated by crossing breeders Braf^WT/WT/Pten^f/f, mTyrCreERT2 mice to BRAF^V600E, Pten^f/f mice. The mice were housed in secure animal facility cages in 12 hour light:dark cycles at temperature around 25° C. and 70% humidity. Mice had access to ad-libitum food and water. NSG (NOD.Cg-Prkd^scid Il2rg^tm1Wjl/SzJ) mice were from the Division of Laboratory Animal Resources (Duke University). The NSG animals were fed with a GL3 diet and were kept in pathogen free conditions.
# Tumor models and cells. […] Tumors were measured thrice weekly using an electronic caliper. Tumor volumes were calculated by the formula V=L×(W×W)/2. For iBP mouse tumors, volumes were calculated by the formula V=L×B×H. For tumor growth rate studies mice were euthanized when the tumors reached a maximum size of 2000 mm^3.
# Ovarlectomy and subcutaneous pellet Insertion. […] The mouse was then removed from anesthesia and kept in a clean cage and monitored until conscious. The mice were monitored for recovery for 10 days. […]
# [3] = test system: T cells co-cultured with BMDM; experiment: T cells co-cultured with bone marrow-derived macrophages (BMDM) polarized to M2; assay type: cell-based, mouse; details: E2 treated ERα^f/f macrophages, TCM
# Protocol: In vitro bone marrow-derived macrophage differentiation. For this purpose, bone marrow cells were aseptically collected from 8-10 weeks old female C57BL/6J mice by crushing the femurs and tibias in PBS, […] and 2 mM EDTA. Cells were added to ACK buffer to lyse the red blood cells for 2 mins with intermediate vortexing. The solution was filtered through a 40 μm strainer to remove bone fragments. To differentiate bone marrow cells to macrophages the cells were plated in DMEM media (100%) or DMEM media (70%) and 30% tumor-conditioned media, supplemented with 10% heat-inactivated charcoal-stripped serum in the presence of 30 ng/mL MCSF (Cat #312-02, PeproTech). After 3 days cells were supplemented with 50% of respective fresh media. On day 6 the media was removed and replaced with fresh media. When the cells are fully differentiated to macrophages on day 7, they are treated overnight with either DMSO, E2 (1 nM) or E2+fulvestrant (100 nM). […]
# as §1, with “staining.” for “staining. CD3+ T cells were isolated from the spleens of C57BL/6J or P-mel mice with magnetic bead-based T cell isolation kit (Cat #19851, StemCell Technologies).”
substance,measurement,setting,value
17β-estradiol [E2],proliferation or cytotoxic capabilities of CD4+ or CD8+ T cells,[1],did not affect
same,number of intra-tumoral CD8+ cytotoxic T cells,[2],decreased
same,"expression of cytotoxic T cell markers (GZMB, IFNγ)",[3],did not show similar decrease
